Measurements from ChEMBL document CHEMBL5257112, “Discovery of 4-oxo-4,5-dihydropyrazolo[1,5-a]quinoxaline-7-carboxamide derivatives as PI3Kα inhibitors via virtual screening and docking-based structure optimization” (Bioorg Med Chem, 2023).

How the values were obtained:
Homo sapiens [1] = organism: Homo sapiens; assay: Selectivity ratio of IC50 for PI3Kdelta (unknown origin) over IC50 for PI3Kalpha (unknown origin)
Homo sapiens [2] = organism: Homo sapiens; assay: Selectivity ratio of IC50 for PI3Kbeta (unknown origin) over IC50 for PI3Kalpha (unknown origin)
Homo sapiens [3] = organism: Homo sapiens; assay: Selectivity ratio of IC50 for PI3Kgamma (unknown origin) over IC50 for PI3Kalpha (unknown origin)

Ratio IC50 (Homo sapiens [1]): 17
Ratio IC50 (Homo sapiens [2]): > 41
Ratio IC50 (Homo sapiens [3]): 3.5
SMILES: CCn1c(=O)c2ccnn2c2cc(N)c(C(=O)NCc3cncnc3)cc21
